In the library only some 16% were active in any assay of this set; here they are far more common.
uPA surface inh = inhibitors of cell surface uPA generation; cell surface uPA generation assay, qHTS; Potency, µM (doses to about 38.3 µM), for inactives: top-dose activity change, negative = inhibition, hits mostly inhibitors; 0.31% of 330,000 active; active means well fitted inhibition curve with a large enough effect; inconclusive means small, poorly fitted or top-dose-only effect; inactive means no such curve, though single readings can be large or run the other way; tested in mouse RAW 264.7 cells; further: potency means the concentration at half of the fitted maximal effect; on the % scale 0 is the no-effect control and ±100 the full control effect; nearly all actives have a fitted effect of over 55% in size
DT40 TDP1 no CPT = qHTS for Inhibitors of human tyrosyl-DNA phosphodiesterase 1 (TDP1): qHTS in cells in absence of CPT | DT40 Tdp1-/- hTDP1 cells, no CPT, ATP luminescence, 48 h | Potency, µM (doses to about 46.2 µM), for the others: at the top dose activity change, negative = growth inhibition, actives largely listed as inhibitors | 15% of 420,000 active; further: potency means the concentration at half of the fitted maximal effect; on the % scale 0 is the no-effect control and ±100 the full control effect; nearly all actives have a fitted effect of over 55% in size
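Readout: luminescence from CellTiter-Glo after 30 min in the dark at RT. Cells: DT40 Tdp1-/- with stable hTDP1, 400/well. Exposure: compounds alone, ≥48 hr, 37 °C.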
DT40 TDP1 CPT = growth inhibition of DT40 Tdp1-/-;hTDP1 cells with camptothecin (screen for TDP1 inhibitors). AID 686979. Potency, µM (series often up to 46.2 µM), for inactives: at the highest dose activity change, negative = growth inhibition, actives largely listed as inhibitors. chicken DT40 Tdp1-/-;hTDP1 cells + 20 nM CPT, ATP luminescence, 48 h. 12% of 420,000 active; further: potency means the concentration at half of the fitted maximal effect; on the % scale 0 is the no-effect control and ±100 the full control effect; nearly all actives have a fitted effect of over 55% in size
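Cell growth measured by CellTiter-Glo luminescence after a minimum 48 h, 37 C compound exposure with 20 nM CPT in Tdp1-knockout DT40 cells stably expressing hTDP1, seeded 400/well; qHTS titration format.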
TDP1 inh = TDP1 (human) enzyme inhibition. Q9NUW8. recombinant TDP1, AlphaScreen DNA substrate cleavage. Potency, µM (doses to about 130 µM), inactives show at the top dose activity change, negative = inhibition, most hits filed as inhibitors. 0.28% of 350,000 active. AID 485290; further: potency means the concentration at half of the fitted maximal effect; on the % scale 0 is the no-effect control and ±100 the full control effect; nearly all actives have a fitted effect of over 40% in size
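Tdp1 1 nM final; 15 min RT w/ cpd; substrate 15 nM, 5 min; beads 10 ug/ml, 10 min; AlphaScreen read. Neg ctrl: no enzyme.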
miR-21 reporter = raises the signal of a miR-21 reporter | HeLa miR-21 FLuc reporter, luciferase, 48 h | Potency, µM (highest dose often 38.3 µM), inactives show at the highest dose reporter change, positive = more light | 340,000 tested, under 10 active | AID 2288; active = well fitted rising curve with a large enough effect; inconclusive = small, poorly fitted or top-dose-only effect; inactive = no such curve, though single readings can be large or run the other way;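 note: % of control where 0% means no effect; miR-21 action dims this reporter so a rising signal means less miR-21 action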
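HeLa miR-21-FLuc reporter line, endogenous miR-21; 2000 cells/well in DMEM/10% FBS; compound titration up to ~40uM final, 48 h, 37 degree Celsius; luciferase detection reagent, 15 min lysis, CCD luminescence.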
Active calls of the source: *; ? = inconclusive; . = no result; [ ] = remark or other dose. Unless noted, the call rests on the fitted dose curve; in most records, active means well fitted curve in the direction sought with a large enough effect; inconclusive means small, poorly fitted or top-dose-only effect, or another doubt; inactive means no such curve, though single readings can be large; an effect the other way counts as inactive or inconclusive.

SMILES	uPA surface inh	DT40 TDP1 no CPT	DT40 TDP1 CPT	TDP1 inh	miR-21 reporter
COc1ccc(CCCc2nnc(SCC(=O)N/N=C\c3ccc(O)c(OC)c3)o2)cc1C	-10%	?	15µM*	4%	-23%
O=C(Nc1ccc(Oc2ccccc2)cc1)c1csc([C@H]2C[C@H](O)[C@@H](CO)O2)n1	.	10µM*	16µM*	.	.
NC(=O)c1csc(C2OC(CO)C(O)C2O)n1 (stereo not drawn)	.	0.026µM*	0.046µM*	.	.
O=C(Nc1ccc(Oc2ccccc2)cc1)c1csc([C@@H]2O[C@H](CO)[C@@H](O)[C@H]2O)n1	.	21µM*	16µM*	.	.
COC(=O)c1csc(C2OC(CO)C(O)C2O)n1 (stereo not drawn)	.	-25%	-2%	.	.
CCOc1cc(C=C(C#N)C#N)ccc1Oc1ccc([N+](=O)[O-])cn1	-8%	13µM*	18µM*	-3%	2%
COc1cc(/C=C2/NC(=O)N(CC(=O)Nc3ccc(C)cc3)C2=O)ccc1Oc1ccc([N+](=O)[O-])cn1	3%	13%	?	-8%	3%
COc1cc(/C=N\NC(=O)c2ccccc2F)ccc1Oc1ccc([N+](=O)[O-])cn1	-14%	4.6µM*	4.6µM*	0%	15%
COc1cc(/C=C(/C#N)c2ccc(F)cc2)ccc1Oc1ccc([N+](=O)[O-])cn1	-1%	3.7µM*	2.9µM*	0%	10%
COc1cc(/C=N\NC(=O)c2ccc(Cl)cc2)ccc1Oc1ccc([N+](=O)[O-])cn1	-5%	-20%	-4%	7%	2%
COc1ccccc1C1CCN(Cc2ccc3ccccc3c2)CC1	-6%	?	?	.	-4%
O=C(c1cccc(F)c1F)N1CCOc2ccc(CN3CCC(Oc4cccnc4)CC3)cc2C1	.	?	-14%[9.04 µM]	.	.
OCCNc1nc(NCc2ccccc2)c2ccccc2n1	-4%	?	?	.	6%
Cc1ccc(CNc2nc(N)c([N+](=O)[O-])c(Nc3ccc(F)cc3)n2)cc1	.	-2%	?	4%	-6%
N#Cc1ccc(Nc2nc(NCc3ccccc3)nc3ccsc23)cc1	.	1.8µM*	6.5µM*	.	.
Cc1cccc(Nc2nc(N)c([N+](=O)[O-])c(NCc3ccccc3)n2)c1	2%	?	?	8%	14%
Fc1ccc(Nc2nc(NCc3ccccc3)nc3ccsc23)cc1	.	9.2µM*	8.2µM*	.	.
C#Cc1cccc(Nc2nc(NCc3ccccc3)nc3ccsc23)c1	.	10µM*	9.2µM*	.	.
CC(C)(C)c1cc(CNC(=O)C2CCC(=O)N(Cc3ccccc3F)C2)[nH]n1 (stereo not drawn)	.	6%	5%	.	.
Cc1ccccc1C(=O)c1ccccc1C(=O)c1ccccc1	0%	16µM*	?	.	.
O=C(COC(=O)c1ccccc1C(=O)c1ccc(Cl)cc1)NC(c1ccccc1)c1ccccc1	?	15µM*	12µM*	8%	0%
COc1ccc(C(=O)CCC(=O)O)c2ccccc12	.	-10%	1%	0%	.
Cc1cc2ccccc2cc1C(=O)c1ccccc1	-1%	-22%	4%	.	.
COc1ccc(C(=O)c2ccc(N(C)C)cc2)c2ccccc12	?	1.5µM*	1µM*	0%	14%
O=C(COC(=O)c1ccccc1C(=O)c1ccc(Cl)cc1)NCCc1ccccc1	-9%	?	?	3%	5%
SMILES	uPA surface inh	DT40 TDP1 no CPT	DT40 TDP1 CPT	TDP1 inh	miR-21 reporter
COc1ccc(C(=O)c2cc(C(C)=O)c(Nc3ccccc3)s2)cc1	-7%	26µM*	?	.	-6%
COc1ccc(C(=O)c2ccccc2C(=O)c2ccccc2)cc1	-1%	16µM*	?	.	.
COc1ccc(C(=O)c2ccc(Br)cc2)c(OC)c1OC	-2%	-25%	-6%	.	.
COc1ccccc1C(=O)COC(=O)c1ccc(N(C)C)cc1	.	18µM*	?	4%	-71%
COc1ccc(-n2nnnc2/C=C\Nc2ccccc2C(=O)c2ccccc2)cc1	-12%	5.8µM*	7.3µM*	-4%	20%
COc1ccc(C(=O)c2ccc(OC)c(OC)c2OC)cc1	-9%	3.7µM*	3.7µM*	.	.
CCC(=O)Nc1c(C(=O)N2CCN(c3ccccn3)CC2)cnn1-c1ccc(Cl)cc1	4%	?	-10%	5%	-2%

Entries of single compounds, looked up by structure:
COc1ccc(C(=O)c2ccc(Br)cc2)c(OC)c1OC is listed with uPA surface inh: -2%; DT40 TDP1 no CPT: -25%; DT40 TDP1 CPT: -6%; TDP1 inh: .; miR-21 reporter: .
COc1ccccc1C(=O)COC(=O)c1ccc(N(C)C)cc1 is listed with uPA surface inh: .; DT40 TDP1 no CPT: 18µM*; DT40 TDP1 CPT: ?; TDP1 inh: 4%; miR-21 reporter: -71%

Structural class: those above containing a cyano group.
SMILES	uPA surface inh	DT40 TDP1 no CPT	DT40 TDP1 CPT	TDP1 inh	miR-21 reporter
CCOc1cc(C=C(C#N)C#N)ccc1Oc1ccc([N+](=O)[O-])cn1	-8%	13µM*	18µM*	-3%	2%
COc1cc(/C=C(/C#N)c2ccc(F)cc2)ccc1Oc1ccc([N+](=O)[O-])cn1	-1%	3.7µM*	2.9µM*	0%	10%
N#Cc1ccc(Nc2nc(NCc3ccccc3)nc3ccsc23)cc1	.	1.8µM*	6.5µM*	.	.

High-throughput results: PubChem BioAssay, National Center for Advancing Translational Sciences (NCATS)
